Measurements as given in ChEMBL document CHEMBL2176915, “Phenyltetrahydroisoquinoline-pyridinaldoxime conjugates as efficient uncharged reactivators for the dephosphylation of inhibited human acetylcholinesterase” (2012).

Chains of the proteins cited; added tags and fusions are not shown. Lines headed by an entry give the natural chain unless they say otherwise; changes in a name come on top.
UniProt P22303: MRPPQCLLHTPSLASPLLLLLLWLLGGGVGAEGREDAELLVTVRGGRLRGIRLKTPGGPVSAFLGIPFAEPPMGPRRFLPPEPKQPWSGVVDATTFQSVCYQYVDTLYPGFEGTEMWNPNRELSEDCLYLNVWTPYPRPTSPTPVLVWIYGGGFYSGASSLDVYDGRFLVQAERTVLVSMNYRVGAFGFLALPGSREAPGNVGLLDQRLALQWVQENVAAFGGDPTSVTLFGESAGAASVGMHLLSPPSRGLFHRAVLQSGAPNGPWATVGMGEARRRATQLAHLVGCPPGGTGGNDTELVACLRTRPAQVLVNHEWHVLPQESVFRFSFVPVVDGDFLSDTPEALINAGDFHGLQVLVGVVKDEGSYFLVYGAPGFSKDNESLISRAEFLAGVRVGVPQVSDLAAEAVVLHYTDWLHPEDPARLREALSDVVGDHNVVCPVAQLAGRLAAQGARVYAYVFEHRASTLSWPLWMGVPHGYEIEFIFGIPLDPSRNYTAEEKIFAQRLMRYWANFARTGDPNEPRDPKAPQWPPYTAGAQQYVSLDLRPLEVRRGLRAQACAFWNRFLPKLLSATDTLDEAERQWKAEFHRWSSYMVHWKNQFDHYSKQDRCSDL

Assays:
[1] = target: Acetylcholinesterase (Homo sapiens) (UniProt P22303); experiment: Reactivation of VX-inhibited human AChE assessed as bimolecular reactivation rate constant
[2] = target: Acetylcholinesterase (Homo sapiens) (UniProt P22303); experiment: Reactivation of VX-inhibited human AChE assessed as reactivation rate constant
[3] = target: Acetylcholinesterase (Homo sapiens) (UniProt P22303); experiment: Reactivation of paraoxon-inhibited human AChE assessed as bimolecular reactivation rate constant
[4] = target: Acetylcholinesterase (Homo sapiens) (UniProt P22303); experiment: Reactivation of tabun-inhibited human AChE assessed as bimolecular reactivation rate constant
[5] = target: Acetylcholinesterase (Homo sapiens) (UniProt P22303); experiment: Reactivation of tabun-inhibited human AChE assessed as reactivation rate constant
[6] = target: Acetylcholinesterase (Homo sapiens) (UniProt P22303); experiment: Reactivation of paraoxon-inhibited human AChE assessed as reactivation rate constant

Row | Structure (SMILES) | Activity [1] | Activity [2] | Activity [3] | Activity [4] | Activity [5] | Activity [6]
1 | COc1cc2c(cc1OC)C(c1ccccc1)N(CCCCCc1cnc(/C=N/O)c(O)c1)CC2 (stereo not given) | 0.2 mM⁻¹ min⁻¹ | – | – | – | – | –
2 | COc1cc2c(cc1OC)C(c1ccccc1)N(CCCCc1cnc(/C=N/O)c(O)c1)CC2 (stereo not given) | 1.3 mM⁻¹ min⁻¹ | 0.1 min⁻¹ | – | – | – | –
3 | COc1cc2c(cc1OC)C(c1ccccc1)N(CCCCCc1ccc(O)c(/C=N/O)n1)CC2 (stereo not given) | 58 mM⁻¹ min⁻¹ | 0.35 min⁻¹ | 13 mM⁻¹ min⁻¹ | 2.7 mM⁻¹ min⁻¹ | 0.015 min⁻¹ | 0.4 min⁻¹
4 | COc1cc2c(cc1OC)C(c1ccccc1)N(CCOCCCc1ccc(O)c(/C=N/O)n1)CC2 (stereo not given) | 3 mM⁻¹ min⁻¹ | – | – | 1.5 mM⁻¹ min⁻¹ | 0.006 min⁻¹ | –
5 | COc1cc2c(cc1OC)C(c1ccccc1)N(CCCCCc1ccnc(/C=N/O)c1O)CC2 (stereo not given) | 2.4 mM⁻¹ min⁻¹ | 0.28 min⁻¹ | 6.8 mM⁻¹ min⁻¹ | 1 mM⁻¹ min⁻¹ | 0.08 min⁻¹ | 0.27 min⁻¹
6 | COc1cc2c(cc1OC)C(c1ccccc1)N(CCCc1ccc(O)c(/C=N/O)n1)CC2 (stereo not given) | 3.8 mM⁻¹ min⁻¹ | 0.45 min⁻¹ | 3 mM⁻¹ min⁻¹ | 0.5 mM⁻¹ min⁻¹ | 0.0034 min⁻¹ | 0.6 min⁻¹
7 | COc1cc2c(cc1OC)C(c1ccccc1)N(CCCCc1ccc(O)c(/C=N/O)n1)CC2 (stereo not given) | 20 mM⁻¹ min⁻¹ | 0.68 min⁻¹ | 19 mM⁻¹ min⁻¹ | 1.7 mM⁻¹ min⁻¹ | 0.045 min⁻¹ | 1.17 min⁻¹
8 | COc1cc2c(cc1OC)C(c1ccccc1)N(CCCCc1ccnc(/C=N/O)c1O)CC2 (stereo not given) | 0.9 mM⁻¹ min⁻¹ | 0.31 min⁻¹ | 2.5 mM⁻¹ min⁻¹ | – | – | 0.095 min⁻¹
9 | COc1cc2c(cc1OC)C(c1ccccc1)N(CCCCCCc1cc(C)nc(/C=N/O)c1O)CC2 (stereo not given) | 0.5 mM⁻¹ min⁻¹ | 0.037 min⁻¹ | – | 0.5 mM⁻¹ min⁻¹ | 0.028 min⁻¹ | –
10 | COc1cc2c(cc1OC)C(c1ccccc1)N(CCCc1ccnc(/C=N/O)c1O)CC2 (stereo not given) | 0.8 mM⁻¹ min⁻¹ | – | – | – | – | –
11 | COc1cc2c(cc1OC)C(c1ccccc1)N(CCCCCCc1ccc(O)c(/C=N/O)n1)CC2 (stereo not given) | 7.6 mM⁻¹ min⁻¹ | 0.29 min⁻¹ | 11 mM⁻¹ min⁻¹ | 1.5 mM⁻¹ min⁻¹ | 0.021 min⁻¹ | 0.168 min⁻¹
